Source: ChEMBL document CHEMBL1154768 (J Med Chem, 2009)

Sequences of proteins named here, by UniProt entry; tags and fusion partners are left off.
UniProt P0DMS8, whole entry: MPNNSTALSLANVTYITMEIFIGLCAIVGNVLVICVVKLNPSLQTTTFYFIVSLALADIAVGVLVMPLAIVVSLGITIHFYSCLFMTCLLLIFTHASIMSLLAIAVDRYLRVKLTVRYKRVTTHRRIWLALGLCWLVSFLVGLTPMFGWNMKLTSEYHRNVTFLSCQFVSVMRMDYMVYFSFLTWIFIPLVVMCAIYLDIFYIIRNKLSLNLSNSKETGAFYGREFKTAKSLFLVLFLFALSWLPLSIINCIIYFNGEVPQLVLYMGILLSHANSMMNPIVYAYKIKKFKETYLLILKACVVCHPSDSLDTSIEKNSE

Biological target: Adenosine receptor A3 (Homo sapiens, UniProt P0DMS8)
Assay: Agonist activity at human recombinant adenosine A3 receptor expressed in CHO cells assessed as inhibition of forskolin-stimulated cAMP production treated 45 mins before forskolin challenge measured after 15 mins by radioimmunoassay relative to NECA
Assay type: functional, cell-based

CCN1C(=C/C=C/C=C/C2=[N+](CCCCCC(=O)NCCNC(=O)CCC#Cc3nc(NCc4cccc(Cl)c4)c4ncn([C@H]5[C@H](O)[C@H](O)[C@@]6(C(=O)NC)C[C@H]56)c4n3)c3ccccc3C2(C)C)C(C)(C)c2cc(S(=O)(=O)[O-])ccc21
IC50: 1.09 nM
